Measured values taken from article PMC8059561, “Lowered sensitivity of bitter taste receptors to β-glucosides in bamboo lemurs: an instance of parallel and adaptive functional decline in TAS2R16?” (Proceedings of the Royal Society B: Biological Sciences, 2021).

Test system: TAS2R16 H. griseus S251L
Experiment: Calcium assay, single-point mutant H. griseus S251L TAS2R16
Details: HEK293T, Gα16/gust44, Calcium 4

`OCc1ccccc1O[C@@H]1O[C@H](CO)[C@@H](O)[C@H](O)[C@H]1O` [salicin] was tested, and the EC50 was > 2500 µM.
